Ab-91 heavy chain CDR variants: yeast mating affinities

Target: peptide PDVDLGDISGINAS, taken from heptad repeat 2 (HR2) of SARS-CoV-2 spike.

Parent scFv Ab-91: VL joined to VH by three GGGGS repeats. Changes lie in the heavy chain CDRs alone.
VL: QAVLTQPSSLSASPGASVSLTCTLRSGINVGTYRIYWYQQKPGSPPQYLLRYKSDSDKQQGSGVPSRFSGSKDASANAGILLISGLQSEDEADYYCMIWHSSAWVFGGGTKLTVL
VH: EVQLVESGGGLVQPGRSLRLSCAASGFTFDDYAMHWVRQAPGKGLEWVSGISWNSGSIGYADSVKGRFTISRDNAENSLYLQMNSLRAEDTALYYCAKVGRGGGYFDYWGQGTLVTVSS

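The starting antibody came from a phage panning campaign against this peptide. The library (AAYL51) carries one to three amino acid substitutions per variant, with no insertions or deletions. In AlphaSeq, yeast of one mating type display the scFv and yeast of the other type display the target. Mating (16 h, 30 °C) was followed by selection of diploids and sequencing of their barcodes. A regression on co-assayed BCL2-family reference pairs converts the normalised counts of each replicate to an apparent Kd. There are three technical replicates.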

Each variant is given by its three heavy chain CDRs, as the data file delimits them; those of the parent are GFTFDDYAMH, GISWNSGSIGYADSVK, VGRGGGYFDY.
Scale: log10 of Kd in nM, estimated from mating counts; low values are strong binders.
"ND" means that the variant was in the library but no mating with the target was seen in that replicate; the authors take this as a sign of poor binding, and no number exists.
As a blank, each scFv also met three strains without target: over library AAYL51, 21% of these pairings were detected, typically at 4.54 and seldom below 3.26.

CDR-H1,CDR-H2,CDR-H3,"replicates, log10 nM"
GDTFLDYAMH,PISWNSGSIGYADSVK,VGRGGGYFDY,ND ND ND
GFTFDDYAMH,GISWDSCSIGYADSVK,VGRGGGSFDY,1.02 1.08 0.60
GFTFDDYAMH,GISHNSGYIGYADSVK,VMRGGGYFDY,ND 5.78 ND
GFTFDDYQMH,GISWNSGSIGYLDSVK,VGRFGGYFDY,4.14 ND ND
GFYYDDYAMH,GISWNSGSIGYADYVK,VGRGGGYFDY,ND ND ND
GFTFDDYAMH,GISWNSGSIGYADSVK,RGRGGGWFDY,2.85 3.38 3.49
GFTFDDYAHH,GISWNSGEIGYADSVK,VMRGGGYFDY,ND ND ND
GFTFDDYAME,GISINSGSIGYADSVK,VMRGGGYFDY,ND ND ND
GFTFDHYAMH,GISTNLGSIGYADSVK,VGRGGGYFDY,ND 4.42 ND
GFTFDDYAMH,GISWNSRSHGYADSVK,VGRGGGYFDN,1.64 1.66 1.39
GFTFDDTAMT,GISMNSGSIGYADSVK,VGRGGGYFDY,4.28 5.21 3.97
GFTFDDYAMH,GISVNSGSIGYADSVK,VGEGGCYFDY,ND ND ND
GFTFDCVAMH,GISWNSGSIGYADSVK,VGVGGGYFDY,1.75 1.91 0.78
GFTFDDYAML,KISWNSGSIGNADSVK,VGRGGGYFDY,4.27 ND 4.51
GETFLDYAMH,GISWNSGSIGYADSVK,VGRGGGYSDY,4.31 ND ND
GFTFDDYAMH,GIKWNSGSIGYADSWK,VGRGGGYFYY,ND ND ND
GSTFDDYAMH,GISINSGSIGYADSVK,VGREGGYFDY,ND ND ND
GFTFDDYAMH,GISWNSGSKGVADSVK,VGRGGGYFDY,1.94 2.04 2.46
GFTFDDYAMH,GISQYSGSIRYADSVK,VGRGGGYFDY,4.46 ND ND
GFTFWDSACH,GISWNSGSIGYADSVK,VGRGGGYFDY,1.51 1.29 1.22
GFTFDDYAMH,GISWNSGSITYADSIK,VGRGGGYFSY,4.76 ND ND
SFTFDDYAMH,GISWNSGSIGYADSVK,VGRGGGYFGY,4.40 ND 3.45
GFTFDDYAMH,GISWNSGSIGVADSVA,VGRGGGYFDY,2.72 2.21 1.81
GFTFDIYAME,GISWNSGSIGYADSVK,YGRGGGYFDY,ND 5.89 ND
GFTFDDYAMH,GISWNSGSIWYADSVK,VGRGGGKFMY,ND 6.16 ND
GFTFNDYAMH,GISQNSGSIGYADSVK,QGRGGGYFDY,ND 4.47 5.60
GFTFDDYAMH,GISWNSGSIGYASTVK,VGRGGGDFDY,ND ND ND
GFTFGDYAMH,GISWNSGKIGYADSVK,VGRGGGYFDY,3.33 3.75 3.16
GFTFRDYAMH,AISWNSGSIGYADSVK,VGRGGGYFDF,ND ND ND
GFTFDDYAMH,GISWNSGSDGYACSVK,VGRGGGYFDY,4.24 4.80 ND
GFTFEDYAMH,GISWNSGSIGYADSVK,VGRDGGYFCY,1.12 1.17 0.76
GFTFDDYAMH,GISWNSGSIGYAHSVK,VGRGPSYFDY,5.77 5.23 5.70
GFTFQDYAMH,GISFNSGSIGYADSVK,VGQGGGYFDY,0.14 0.18 -0.83
GFTFDTYAMH,GISWNSGSGGYAGSVK,VGRGGGYFDY,ND ND ND

Top 4 of the variants detected in all replicates, tightest first:

| CDR-H1 | CDR-H2 | CDR-H3 | replicates, log10 nM |
|---|---|---|---|
| GFTFQDYAMH | GISFNSGSIGYADSVK | VGQGGGYFDY | 0.14 0.18 -0.83 |
| GFTFDDYAMH | GISWDSCSIGYADSVK | VGRGGGSFDY | 1.02 1.08 0.60 |
| GFTFEDYAMH | GISWNSGSIGYADSVK | VGRDGGYFCY | 1.12 1.17 0.76 |
| GFTFWDSACH | GISWNSGSIGYADSVK | VGRGGGYFDY | 1.51 1.29 1.22 |

Source: Engelhart et al. 2022 (doi:10.1038/s41597-022-01779-4), MIT Lincoln Laboratory and A-Alpha Bio; data file from the FLAb repository.